Measurements reported in paper PMC3558928 (Chemistry & biology, 2013).

Sequences of proteins named here, by UniProt entry; tags and fusion partners are left off. Residues count along the entry.
UniProt P54132, 636-1298: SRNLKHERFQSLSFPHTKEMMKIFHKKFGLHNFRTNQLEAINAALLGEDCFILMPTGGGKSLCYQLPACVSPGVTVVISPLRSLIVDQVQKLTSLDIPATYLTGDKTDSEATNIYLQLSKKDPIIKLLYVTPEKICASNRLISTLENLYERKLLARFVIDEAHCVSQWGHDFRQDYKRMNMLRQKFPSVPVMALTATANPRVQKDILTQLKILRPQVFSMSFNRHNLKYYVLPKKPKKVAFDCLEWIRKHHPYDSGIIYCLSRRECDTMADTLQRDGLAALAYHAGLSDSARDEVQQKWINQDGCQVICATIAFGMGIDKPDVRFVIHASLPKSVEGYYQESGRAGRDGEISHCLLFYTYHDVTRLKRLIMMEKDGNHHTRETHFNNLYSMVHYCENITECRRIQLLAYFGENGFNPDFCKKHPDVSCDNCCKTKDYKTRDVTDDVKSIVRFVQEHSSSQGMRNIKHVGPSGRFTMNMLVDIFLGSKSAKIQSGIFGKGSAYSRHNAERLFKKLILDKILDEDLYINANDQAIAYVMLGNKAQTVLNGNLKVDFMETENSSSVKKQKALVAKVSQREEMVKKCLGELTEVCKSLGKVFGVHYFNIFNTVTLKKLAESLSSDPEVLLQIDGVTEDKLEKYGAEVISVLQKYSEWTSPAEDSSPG

What was measured:
[1] = target: BLM (Homo sapiens, UniProt P54132); assay: ssDNA-dependent ATPase activity of BLM; type: biochemical
[2] = target: BLM^636–1298 (Homo sapiens, UniProt P54132); assay: Gel-based DNA unwinding assay, forked duplex, truncated BLM; type: biochemical

Structure (SMILES): O=C(Nc1ccc(F)c(C(F)(F)F)c1)Nc1nnc(-c2ccncc2)s1 [ML216]
- Ki [1]: 1.76 ± 0.26 µM
- IC50 [2]: 0.97 µM
